From US7786328B2, “Cyclohexyl-1,4-diamine compounds” (dated 2010) come the findings set out here.

Amino acid sequences for entries named in this document (tags omitted).
UniProt P35372, whole entry, looked up: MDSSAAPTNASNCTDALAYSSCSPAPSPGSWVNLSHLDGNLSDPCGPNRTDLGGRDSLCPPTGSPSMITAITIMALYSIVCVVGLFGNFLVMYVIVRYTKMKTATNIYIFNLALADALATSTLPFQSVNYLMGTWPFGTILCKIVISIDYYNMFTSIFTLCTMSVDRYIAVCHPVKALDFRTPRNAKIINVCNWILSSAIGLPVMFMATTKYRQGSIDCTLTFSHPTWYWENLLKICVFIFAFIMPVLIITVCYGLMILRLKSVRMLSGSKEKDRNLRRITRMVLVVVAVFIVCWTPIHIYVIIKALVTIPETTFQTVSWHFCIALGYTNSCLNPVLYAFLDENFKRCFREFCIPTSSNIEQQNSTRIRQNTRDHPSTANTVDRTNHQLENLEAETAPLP

This assay deals with human μ-opiate receptor (Homo sapiens, UniProt P35372). The assay can be described thus: Measurement of the μ binding ([3H]-naloxone displacement, CHO-K1 membrane preparation). Particulars: test substance 1 μM; inhibition of specific binding of 1 nmol/l [3H]-naloxone.

Turning to `O=C(OCc1ccccc1C(=O)NC1CCC(c2ccccc2)(N2CCCCC2)CC1)c1ccccc1` (stereo not drawn), the “μ-Opiate receptor [1 μM], % inhibition” value is given as 44%.

For the compound `CN(C)C1(Cc2ccccc2F)CCC(NC(=O)COc2ccccc2)CC1` (stereo not drawn), the “μ-Opiate receptor [1 μM], % inhibition” value is given as 75%. As for `CN(C)C1(Cc2ccccc2Cl)CCC(NC(=O)C(C)(C)Oc2ccc(C(N)=O)cc2)CC1` (stereo not drawn), the “μ-Opiate receptor [1 μM], % inhibition” value was determined as 89%. As for `O=C(COc1ccc(Cl)cc1)NC1CCC(Cc2ccccc2)(N2CCCC2)CC1` (stereo not drawn), the “μ-Opiate receptor [1 μM], % inhibition” value was 63%. Next, `Cc1cccc(CC2(N(C)C)CCC(NC(=O)CCc3ccccc3OC(=O)c3ccccc3)CC2)c1` (stereo not drawn): 47%; `Cc1ccc(CC2(N(C)C)CCC(NC(=O)c3ccccc3COC(=O)c3ccccc3)CC2)cc1` (stereo not drawn): 96%; `O=C(OCc1ccccc1C(=O)NC1CCC(Cc2ccccc2)(N2CCCCC2)CC1)c1ccccc1` (stereo not drawn): 76%. With `COc1ccc(Oc2ccc([N+](=O)[O-])cc2C(=O)NC2CCC(Cc3ccc(Cl)cc3)(N(C)C)CC2)cc1` (stereo not drawn) the figure was 65%; with `CN(C)C1(Cc2ccccc2)CCC(NC(=O)COc2ccc(Cl)cc2)CC1` (stereo not drawn), 71%.

In the case of `Cc1ccc(CC2(N(C)C)CCC(NC(=O)COCc3ccccc3)CC2)cc1` (stereo not drawn), the “μ-Opiate receptor [1 μM], % inhibition” value is given as 71%.

As for `CN(C)C1(CCc2ccccc2)CCC(NC(=O)CCCOc2ccccc2)CC1` (stereo not drawn), the “μ-Opiate receptor [1 μM], % inhibition” value came out at 58%. Next, `CC(=O)OC(C(=O)NC1CCC(Cc2ccccc2)(N2CCCCC2)CC1)c1ccccc1` (stereo not drawn): 74%. Next, `COc1ccc(Oc2ccc([N+](=O)[O-])cc2C(=O)NC2CCC(Cc3ccccc3F)(N(C)C)CC2)cc1` (stereo not drawn): 96%. With `O=C(COc1ccccc1)NC1CCC(Cc2ccccc2)(N2CCCCC2)CC1` (stereo not drawn) the figure was 44%. Consider `CC(=O)OC(C(=O)NC1CCC(Cc2ccc(C)cc2)(N(C)C)CC1)c1ccccc1` (stereo not drawn), for which the “μ-Opiate receptor [1 μM], % inhibition” value is recorded as 49%. Next, `CC(=O)OC(C(=O)NC1CCC(Cc2cccc(C)c2)(N(C)C)CC1)c1ccccc1` (stereo not drawn): 64%; `CN(C)C1(Cc2cccc(Cl)c2)CCC(NC(=O)COc2cccc(Cl)c2)CC1` (stereo not drawn): 79%. Next, `Cc1cccc(CC2(N(C)C)CCC(NC(=O)c3cccnc3Oc3ccccc3)CC2)c1` (stereo not drawn): 45%; `CN(C)C1(Cc2ccccc2)CCC(NC(=O)CCCOc2ccccc2)CC1` (stereo not drawn): 65%; `CN(C)C1(Cc2cccc(Cl)c2)CCC(NC(=O)CCc2ccccc2OC(=O)c2ccccc2)CC1` (stereo not drawn): 42%. Next, `CN(C)C1(Cc2ccc(F)cc2)CCC(NC(=O)c2ccccc2COC(=O)c2ccccc2)CC1` (stereo not drawn): 95%.

Turning to `CN(C)C1(Cc2cccc(F)c2)CCC(NC(=O)C(C)(C)Oc2ccc(CCNC(=O)c3ccc(Cl)cc3)cc2)CC1` (stereo not drawn), the “μ-Opiate receptor [1 μM], % inhibition” value worked out at 48%. For the compound `CC(Oc1ccccc1)C(=O)NC1CCC(Cc2cccc(Cl)c2)(N(C)C)CC1` (stereo not drawn), the “μ-Opiate receptor [1 μM], % inhibition” value is recorded as 70%. With `Cc1cccc(CC2(N(C)C)CCC(NC(=O)c3ccccc3Nc3ccccc3)CC2)c1` (stereo not drawn) the figure was 73%. Next, `CC(=O)OCC(=O)NC1CCC(Cc2ccccc2Cl)(N(C)C)CC1` (stereo not drawn): 48%; `CN(C)C1(CCc2ccccc2)CCC(NC(=O)COc2cccc(Cl)c2)CC1` (stereo not drawn): 84%; `Cc1ccccc1CC1(N(C)C)CCC(NC(=O)C(C)Oc2ccccc2)CC1` (stereo not drawn): 79%.

As for `CN(C)C1(Cc2cccc(Cl)c2)CCC(NC(=O)c2ccccc2COC(=O)c2ccccc2)CC1` (stereo not drawn), the “μ-Opiate receptor [1 μM], % inhibition” value is recorded as 100%. With `CC(=O)OC(C(=O)NC1CCC(Cc2ccc(Cl)cc2)(N(C)C)CC1)c1ccccc1` (stereo not drawn) the figure was 43%; with `Cc1ccc(CC2(N(C)C)CCC(NC(=O)CSCc3ccccc3)CC2)cc1` (stereo not drawn), 77%.
